Data as given in US10821160B2, “L-asparaginase variants and fusion proteins with reduced L-glutaminase activity and enhanced stability” (priority 2016, dated 2020).

System: NC(=O)C[C@H](N)C(=O)O
Experiment: purified protein, by the assay type
Details: other: Asn, 37° C

## Erwinia chrysanthemi L-asparaginase, wild type (ErA-WT), SEQ ID NO:1 (Dickeya chrysanthemi)
  Km: 48 µM and 44.2 ± 1.6 µM and 47.5 ± 3.5 µM

Values joined by “and” are separate entries in the source; they are usually repeats but may differ in a detail not shown here. Equal values may be shown once.
